Results on five compounds are retold here after PubChem BioAssay AID594 (National Center for Advancing Translational Sciences (NCATS), 2007).

Only a part is listed here, and it is no random draw. Some tests of the compounds listed are not included; inactive here does not mean inactive elsewhere. The source made the active and inactive calls. Cut-off read from the data, not from the text of the source: active = max dye-equivalent concentration above about 11 nM; inconclusive = between about 1.1 nM and that limit; inactive = weaker than that.

The experiment in a line: qHTS Assay for Spectroscopic Profiling in Rhodamine Spectral Region. The conditions noted are these: Rhodamine-region fluorescence, 547/598 nm, Tris buffer. From the text: NIH Molecular Libraries Screening Centers Network [MLSCN] NIH Chemical Genomics Center [NCGC] […] Occasionally, the artifactual effect may originate from the compound#s own spectral or other biophysical properties which generally tend to track its assay concentration. Pre-screening/profiling the library with respect to the compounds# spectral properties should help one exclude false positives early on. While the most informative fluorescent profiling data set is obtained by performing a full excitation and emission scan of each well by using a monochromator-based plate reader, such an approach is practical only on a very limited scale as scanning each well requires long time. An alternative approach, applied here, is to perform plate reader scans using selected excitation and emission wavelength pairs to generate a multidimensional relational database that correlates compound concentration and the respective relative fluorescence intensity at a given wavelength set. A standard curve of rhodamine present on each plate as six-point concentration series, was used to compute a normalized fluorescence response, termed dye-equivalent concentration, for each compound at each concentration.
NCGC Assay Protocol Summary: Buffer: 100 mM Tris buffer, pH 8.0 Dye standard plate: The wells in columns 1 through 4 of a Kalypsys polypropylene 1536-well compound plate were filled with standard solutions of fluorophore corresponding to the spectral region of interest. Solutions of rhodamine were placed in the following wells: E1, F1: 3 mM, E2, F2: 300 uM, E3, F3: 30 uM, E4, F4: zero (DMSO), G1, H1: 3 uM, G2, H2: […], G3, H3: 300 nM, G4, H4: zero (DMSO). Assay Steps: Six uL of buffer were dispensed to 1536-well Greiner black plates. Compounds and dye standards (23 nL) were transferred via Kalypsys PinTool. The plates were incubated for 15 min at room temperature, and then read on ViewLux (Perkin-Elmer) High-throughput CCD imager using 547 nm and 598 nm excitation and emission filter set. Keywords: NIH Roadmap, MLSCN, MLI, MLSMR, qHTS, NCGC, Rhodamine , Fluorescent Profiling.
On the technique in general: In qHTS, concentration-response curves come from the screen itself.
Take `CN(C)c1cccc(C(=O)NCC2(N(C)C)CCCCC2)c1`: the outcome was inactive.

Take `C=C(C)C#C[C@@](O)(C(=O)OC1CCN(C)CC1)c1ccccc1`: the outcome was inactive. `O=C(OC1CN2CCC1CC2)C(CO)(c1ccccc1)c1ccccc1` (stereo not given): the compound was classed as inactive. Then `CN1CC[C@H](OC(=O)[C@](O)(c2ccccc2)C2CCCC2)C1`, with “inactive”; and `CN1CCC[C@H](OC(=O)[C@](O)(c2ccccc2)C2CCCC2)C1`, with “inactive”.
